# From paper PMC7684764 (Journal of medicinal chemistry, 2020)
# Assays:
# MMP-2/MMP-9 = settings: 13a 50 μM and 10 μM, Figure S4
# trypsin = trypsin used for the HDAC assay
# primary wt-p53 AML cells = assay: cells; settings: Homo sapiens, read-out: EC50 in primary wt-p53 AML cells
# MV4–11 cells = assay: Western blot analysis; format: cell-based
# RS4;11 cells = assay: Western blot analysis; format: cell-based; settings: wt-p53 wt-FLT3 RS4;11, 24 h; 13a 200 nM, panobinostat 100 nM, vorinostat 5000 nM
Compound,inhibition of MMP (MMP-2/MMP-9),inhibition of trypsin (trypsin),EC50 (primary wt-p53 AML cells) [µM],"increase in Hsp70 levels (MV4–11 cells; 24 h, Figures 5A and C (MV4–11 and RS4;11))","pro-caspase3 cleavage (MV4–11 cells; wt-p53 FLT3-ITD MV4–11, 24 h, Figure 5A)",cleavage of pro-caspase3 (RS4;11 cells)
"CCCNNC(=O)/C=C/c1ccc(CNCCc2c(C)[nH]c3ccccc23)cc1.O=C(O)C(F)(F)F [Compound 13a, (E)-2-(2-methyl-1H-indol-3-yl)-N-(4-(3-oxo-3-(2-propylhydrazinyl)prop-1-en-1-yl)benzyl)ethanaminium 2,2,2-trifluoroacetate]",does not show any inhibition,does not show any inhibition,< 1,,,
"O=C(CCCCCCC(=O)Nc1ccccc1)NO [SAHA, vorinostat]",,,,observed,observed,observed
